Results on one molecule are retold here after patent US20240011030A1, “TREATMENTS FOR RETINAL DEGENERATIVE DISEASES” (Novartis AG, priority 2020, published 2024).

The subject of one experiment is iPS-RPE cells. Kind of experiment: Transepithelial resistance (TER) of RPE barrier function. As to conditions: FIGS. 7A and 7D. The format is cell-based, human. How it is done:
In order to evaluate the effects of IFNs on RPE barrier function, transepithelial resistance (TER) was measured in 3D cultures of iPS-RPE cells. Briefly, barrier function of RPE cells was assessed by monitoring TER every 15 minutes by means of a cellZscope 2 (NanoAnalytics GmbH, Münster, Germany). The resistance values for individual monolayers at specific times (Ω cm^2) were determined, subtracted for background resistance produced by the blank filter and culture medium (as 0%), and normalized to baseline resistance prior to stimulation (as 100%).
Barrier function of RPE cells was assessed by monitoring TER every 15 minutes by means of a cellZscope 2 (NanoAnalytics GmbH, Munster, Germany). The resistance values for individual monolayers at specific times (Ω cm^2) were determined, subtracted for background resistance produced by the blank filter and culture medium (as 0%), and normalized to baseline resistance prior to stimulation (as 100%).

A further experiment has as its system RPE cells. Kind of experiment: ISG15 induction by IFN stimulation (ELISA). The format is cell-based, human. The following applies: THP1, ARPE-19 or iPS-RPE cells, IFNs up to 100 μg/ml, 24 hours, FIGS. 2D to 2F. How it is done:
To test whether IFNs can induce an IFN response and, if so, which IFNs can induce an IFN response, cells were treated with different IFNs (IFNα1, IFNβ, IFNγ, or IFNλ1/2/3), and ISG15 induction was measured. Cells were treated with different IFN types at 100 ng/ml each (FIG. 2D) or 0 ng/ml IFN, 0.1 ng/ml IFN, 1 ng/ml IFN, 10 ng/ml IFN, or 100 ng/ml IFN (FIGS. 2E and 2F). ISG15 expression in was detected by ELISA 24 hours after treatment as described above, using antibody pairs for ISG15 (R&D #AF4845, #A-830). Upon treatment with different IFN types, the RPE cell lines and THP-1 cells responded to type I IFN stimulation with downstream ISG15 activation (FIG. 2D-2E).
For ELISA, assays were run using Meso Scale Discovery plates (Meso Scale Diagnostics, Rockville, MD). Lysates were extracted using cell lysis buffer (CST #9803), and supplemented with protease and phosphatase inhibitors. Lysates or conditioned media were measured in 384-well plates using antibody pairs for ISG15 (R&D #AF4845, #A-830), IFNβ (R&D #DY814), IFNα1 (abcam #ab215408), IFNγ (R&D #DY285B), IFNλ1/3 (R&D #DY1598B), and cGAS (Cayman #23853, CST #66546). Protein levels were measured according to manufacturer instructions, and detected on a Meso Sector S 600 imager.
For orientation: An ELISA detects its analyte on a solid surface through an enzyme-linked reagent.

B1: IFNβ: interferon-beta purchased from R&D Systems (protein)
chain: MSYNLLGFLQRSSNFQCQKLLWQLNGRLEYCLKDRMNFDIPEEIKQLQQFQKEDAALTIYEMLQNIFAIFRQDSSSTGWNETIVENLLANVYHQINHLKTVLEEKLEKEDFTRGKLMSSLHLKRYYGRILHYLKAKEYSHCAWTIVRVEILRNFYFINRLTGYLRN
Turning to B1, in the experiment on iPS-RPE cells, the “Barrier function (TER) on treatment” value was “impaired”. In addition, the “ISG15 induction in response to IFN stimulation” value in the experiment on RPE cells is reported as “primarily responded”.
